PMC7007416 (Analytical and Bioanalytical Chemistry, 2019)

System: Caco-2 and HT29-MTX-E12 cells (ratio 3:1)
Conditions: 24 h exposure, WST-1; negative control medium with 0.5% DMSO
Method: With the WST-1 assay, mitochondrial activity of the cell is measured by the conversion of WST-1 into formazan dye by mitochondrial dehydrogenase enzymes. The assay is performed as follows: Caco-2 and HT29-MTX-E12 cells (ratio 3:1) were seeded in Greiner Bio-One (Alphen aan den Rijn, The Netherlands) flat-bottom 96-well plates at a concentration of 1 × 10^5 cells/mL in cell culture medium (100 μL/well). Plates were incubated for 24 h at 37 °C under 5% CO2. […] Then, the exposure medium containing (dilutions of) the compounds of interest was discarded and the cells were washed with pre-warmed HBSS. Subsequently, WST-1 reagent (in cell culture medium without phenol red) was added to the cells (1:10, 100 μL/well). After 1.5 h of incubation at 37 °C, the absorbance of each well was measured at 440 nm using a Bio-Tek (Winooski, VT, USA) Synergy HT Multi-Mode microplate reader.

ergotamin(in)e D-tartrate
non-toxic concentration: ≤ 10 µg/mL
